The term remaining activity denotes the activity still measured, relative to the control.

Chains of the proteins cited; added tags and fusions are not shown. Lines headed by an entry give the natural chain unless they say otherwise; changes in a name come on top.
UniProt Q13393: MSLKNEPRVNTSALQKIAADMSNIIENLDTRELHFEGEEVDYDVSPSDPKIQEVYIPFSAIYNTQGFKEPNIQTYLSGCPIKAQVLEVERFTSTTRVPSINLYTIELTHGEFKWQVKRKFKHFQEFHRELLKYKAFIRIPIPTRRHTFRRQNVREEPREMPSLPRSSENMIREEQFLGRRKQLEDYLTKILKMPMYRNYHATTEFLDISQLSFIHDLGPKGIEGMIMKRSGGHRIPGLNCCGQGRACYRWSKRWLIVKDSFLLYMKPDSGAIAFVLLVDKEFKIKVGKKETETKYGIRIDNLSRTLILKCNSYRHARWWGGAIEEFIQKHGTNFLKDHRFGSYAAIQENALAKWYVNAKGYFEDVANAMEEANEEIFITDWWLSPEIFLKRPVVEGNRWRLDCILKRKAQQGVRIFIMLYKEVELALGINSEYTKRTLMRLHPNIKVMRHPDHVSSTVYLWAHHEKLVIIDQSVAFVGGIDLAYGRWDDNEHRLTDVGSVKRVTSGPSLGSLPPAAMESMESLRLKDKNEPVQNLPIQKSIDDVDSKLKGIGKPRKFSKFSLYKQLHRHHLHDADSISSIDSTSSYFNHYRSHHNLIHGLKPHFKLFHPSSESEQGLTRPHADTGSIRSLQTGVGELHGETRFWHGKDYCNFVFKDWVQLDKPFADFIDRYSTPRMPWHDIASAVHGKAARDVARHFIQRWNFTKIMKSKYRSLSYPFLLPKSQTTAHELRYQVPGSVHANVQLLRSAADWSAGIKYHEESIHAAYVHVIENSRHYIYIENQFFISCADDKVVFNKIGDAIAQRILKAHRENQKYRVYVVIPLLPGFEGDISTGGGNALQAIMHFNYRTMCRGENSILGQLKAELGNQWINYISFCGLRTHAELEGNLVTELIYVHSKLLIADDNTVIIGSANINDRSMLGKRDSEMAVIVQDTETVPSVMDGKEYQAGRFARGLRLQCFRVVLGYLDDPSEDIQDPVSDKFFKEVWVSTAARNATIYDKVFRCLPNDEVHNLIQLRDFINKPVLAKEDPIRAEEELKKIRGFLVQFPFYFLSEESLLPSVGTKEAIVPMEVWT

These results are taken from PubChem BioAssay AID602144 (Vanderbilt Specialized Chemistry Center, 2011).

For the experiment, the target named is Phospholipase D1 (Homo sapiens) (UniProt Q13393). As to the kind of experiment: cellular phospholipase D1 activity inhibition – Calu-1 cells, single concentration (AID 602144).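 Also: tested at 200 nM.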 The following applies: cellular PLD1 activity, stronger effect = lower value.

This list holds what a sample rich in hits left over. Active and inactive are the calls of the source. Rule as the data show it: active = remaining activity below about 50%; inactive = the rest.

For the compound `O=C(NCCN1CCC2(CC1)C(=O)NCN2c1cccc(F)c1)c1ccc2ccccc2c1`, the remaining activity is inactive: 83.3%.
